Converted amounts (≈) assume the structure as drawn.
Target: T1, aminopeptidase B (Rattus norvegicus, UniProt O09175)
T1 construct: aminopeptidase B solution which is prepared by Sephadex 100 chromatography as described by Hopusu et al; from tissue
T1 sequence (O09175 1-650): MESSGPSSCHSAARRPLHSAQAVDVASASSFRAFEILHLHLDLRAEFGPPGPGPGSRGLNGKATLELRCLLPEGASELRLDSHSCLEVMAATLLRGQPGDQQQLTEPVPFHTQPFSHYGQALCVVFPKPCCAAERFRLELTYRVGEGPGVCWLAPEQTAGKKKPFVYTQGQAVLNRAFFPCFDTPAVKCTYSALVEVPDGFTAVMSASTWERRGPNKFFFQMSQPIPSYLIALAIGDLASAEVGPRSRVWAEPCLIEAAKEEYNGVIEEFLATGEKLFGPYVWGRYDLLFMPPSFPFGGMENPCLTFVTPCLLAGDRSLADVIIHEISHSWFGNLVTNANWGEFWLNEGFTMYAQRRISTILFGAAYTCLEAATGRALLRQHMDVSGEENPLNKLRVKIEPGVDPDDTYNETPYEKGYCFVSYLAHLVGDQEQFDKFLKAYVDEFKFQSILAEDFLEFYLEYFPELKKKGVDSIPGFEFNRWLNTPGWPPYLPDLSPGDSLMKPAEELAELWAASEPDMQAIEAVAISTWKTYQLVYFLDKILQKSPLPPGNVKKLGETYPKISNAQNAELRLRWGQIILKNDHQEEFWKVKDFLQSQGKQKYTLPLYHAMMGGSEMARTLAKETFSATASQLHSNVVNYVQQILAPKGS
Assay: Inhibitory activity against aminopeptidase B
Type: biochemical
Details: pH 7.0, 37° C., 30 minutes; Table 1
Protocol: (A) Inhibitory activity against aminopeptidase B Testing method: The method described by […] in Archives of Biochemistry and Biophysics 114, 557, (1966) was modfied. To the mixture of 0.3 ml. of 1 mM arginine β-naphthylamide and 1.0 Ml. of 0.1 M Tris hydrochloride buffer (pH 7.0), 0.7 Ml. of distilled water with or without a test material is added and warmed at 37° C. for 3 minutes. The reaction is started by addition of 0.2 ml. of aminopeptidase B solution which is prepared by Sephadex 100 chromatography as described by Hopusu et al. […] Fifteen minutes at room temperature thereafter, absorbance (a) at 530 nm is measured by spectrophotometer. As the control, by similar means the absorbance (b) after the reaction in the absence of a sample is measured. The inhibition percent is calculated as follows: (b-a)/b×100.

| ID50 [mg/L] | SMILES |
| --- | --- |
| 0.48 (≈ 1.4 µM) | CC(C)C[C@H](NC(=O)C(O)C(N)Cc1ccccc1Cl)C(=O)O (stereo partly drawn) [No. 20, (2RS,3RS)-3-amino-2-hydroxy-4-o-chlorophenylbutanoyl-(S)-leucine] |
| 0.07 (≈ 0.204 µM) | CC(C)C[C@H](NC(=O)C(O)C(N)Cc1ccc(Cl)cc1)C(=O)O (stereo partly drawn) [No. 19, (2RS,3RS)-3-amino-2-hydroxy-4-p-chlorophenylbutanoyl-(S)-leucine] |
| 0.55 (≈ 1.87 µM) | CC(C)[C@H](NC(=O)[C@@H](O)[C@H](N)Cc1ccccc1)C(=O)O [No. 6, (2S,3R)-3-amino-2-hydroxy-4-phenylbutanoyl-(S)-valine] |
| 0.17 (≈ 0.578 µM) | CCC[C@H](NC(=O)[C@@H](O)[C@H](N)Cc1ccccc1)C(=O)O [No. 10, (2S,3R)-3-amino-2-hydroxy-4-phenylbutanoyl-(S)-norvaline] |

Source: patent US4189604A, “Bestatin” (Zaidan Hojin Biseibutsu Kagaku Kenkyu Kai, priority 1975, dated 1980)
